These are literature values, as cited in US11896678B2, “Compositions and methods for treatment of peroxisome proliferator-activated receptor gamma (PPARG) activated cancer” (THE BROAD INSTITUTE, INC., priority 2017, dated 2024).

This data set concerns bladder cancer. The note with it: humans; cited from earlier work.

Turning to `CN(CCOc1ccc(CC2SC(=O)NC2=O)cc1)c1ccccn1` (stereo not shown) [rosiglitazone], the “risk / hazard ratio for development of bladder cancer” value is on record as “has not been shown to increase the hazard ratio”.
